Tested on: Anopheles stephensi p38 MAPK
Assay: MK2 phosphorylation in LPS-stimulated ASE cells, western blot
Format: cell-based
Conditions: ASE cells pre-incubated with 10 μM inhibitor, 2 h later 1 μg/ml LPS

Which “p-MK2 levels (phosphorylation of MK2)” value does the source give for `Cc1ccc(-n2nc(C(C)(C)C)cc2NC(=O)Nc2ccc(OCCN3CCOCC3)c3ccccc23)cc1` [BIRB 796, 1-[5-tert-butyl-2-(4-methylphenyl)pyrazol-3-yl]-3-[4-(2-morpholin-4-ylethoxy)naphthalen-1-yl]urea] here?
The value was “undetectable”.

Source: patent US9918989B2, “Combination therapies for malaria” (The Regents of the University of California, priority 2013, dated 2018)
